According to patent publication US6936585B2, “Corticotropin releasing factor 2 receptor agonists” (priority 2002, dated 2005):

Tests used:
[1] = molecular target: T1, CRF2R (Homo sapiens, UniProt Q13324); test: CRF2R agonist activation (EC50 / Emax), called comparative CRF binding; format: cell-based; conditions: for Emax: read-out: CRF2R Emax
T1 sequence (Q13324 1-411): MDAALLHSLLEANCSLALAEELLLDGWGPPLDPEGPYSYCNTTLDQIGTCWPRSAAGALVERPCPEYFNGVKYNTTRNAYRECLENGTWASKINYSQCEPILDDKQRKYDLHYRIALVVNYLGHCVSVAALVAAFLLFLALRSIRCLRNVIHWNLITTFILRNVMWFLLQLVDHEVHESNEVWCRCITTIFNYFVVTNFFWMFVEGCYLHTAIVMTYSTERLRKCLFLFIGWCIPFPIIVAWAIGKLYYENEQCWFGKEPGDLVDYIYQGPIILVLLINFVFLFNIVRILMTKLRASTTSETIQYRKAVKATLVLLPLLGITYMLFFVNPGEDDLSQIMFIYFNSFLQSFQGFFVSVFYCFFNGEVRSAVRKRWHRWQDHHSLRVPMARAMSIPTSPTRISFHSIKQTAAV
How it was run: (§1)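 Read-out is Gαs-driven cAMP induction, quantified directly in lysates or through CRE-reporter gene expression, after treating CRF1R- or CRF2R-expressing cells with peptide. Vehicle-treated cells serve as the comparison.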

[2] = molecular target: T2, CRF1R (Homo sapiens, UniProt P34998); test: CRF1R agonist activation (EC50 / Emax), called comparative CRF binding; format: cell-based; conditions: for Emax: read-out: CRF1R Emax; for EC50: CRF1R EC50
T2 sequence (P34998 24-415): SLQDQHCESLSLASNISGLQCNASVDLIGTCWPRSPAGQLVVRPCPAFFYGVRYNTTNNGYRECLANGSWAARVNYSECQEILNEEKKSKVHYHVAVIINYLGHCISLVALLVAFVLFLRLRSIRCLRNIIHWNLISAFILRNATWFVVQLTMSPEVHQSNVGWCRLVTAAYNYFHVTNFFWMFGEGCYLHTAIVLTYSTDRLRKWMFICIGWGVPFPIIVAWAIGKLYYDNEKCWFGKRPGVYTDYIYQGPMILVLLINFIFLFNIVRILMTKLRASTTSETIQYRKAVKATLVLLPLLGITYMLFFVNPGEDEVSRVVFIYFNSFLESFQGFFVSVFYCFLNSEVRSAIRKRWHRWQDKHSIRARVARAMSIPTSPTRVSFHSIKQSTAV
How it was run: as §1

SMILES | Emax [1] [%] | Emax [2] [%] | EC50 [1] [nM] | EC50 [2] [nM]
CC[C@H](C)[C@H](NC(=O)[C@H](CCCNC(=N)N)NC(=O)[C@H](C)NC(=O)[C@H](CC(C)C)NC(=O)[C@H](CC(C)C)NC(=O)[C@H](CCCNC(=N)N)NC(=O)[C@H](C)NC(=O)[C@H](CC(N)=O)NC(=O)[C@H](CC(N)=O)NC(=O)[C@H](C)NC(=O)[C@H](C)NC(=O)[C@H](CCC(N)=O)NC(=O)[C@H](CCC(N)=O)NC(=O)[C@H](CCCCN)NC(=O)[C@H](CCC(=O)O)NC(=O)[C@H](CCCCN)NC(=O)[C@H](CCC(=O)O)NC(=O)[C@H](CCC(N)=O)NC(=O)[C@H](CCCCN)NC(=O)[C@H](CCC(=O)O)NC(=O)[C@@H](NC(=O)[C@H](CCC(=O)O)NC(=O)[C@@H](NC(=O)[C@H](CCSC)NC(=O)[C@H](CCCCN)NC(=O)[C@H](CCCNC(=N)N)NC(=O)[C@H](CC(C)C)NC(=O)[C@H](CC(C)C)NC(=O)[C@H](Cc1ccccc1)NC(=O)[C@@H](NC(=O)[C@@H]1CCCN1C(=O)[C@H](CC(C)C)NC(=O)[C@H](CC(=O)O)NC(=O)[C@@H](NC(=O)[C@H](CO)NC(=O)[C@@H](NC(=O)[C@@H]1CCCN1C(=O)[C@@H]1CCCN1C(=O)CNC(=O)[C@@H]1CCC(=O)N1)[C@@H](C)CC)[C@@H](C)CC)[C@@H](C)CC)[C@@H](C)CC)[C@@H](C)CC)C(N)=O [compound 282] | 60.8 | 21.8 | – | –
CC[C@H](C)[C@H](NC(=O)[C@H](C)NC(=O)[C@H](CCCCN)NC(=O)[C@H](CCCNC(=N)N)NC(=O)[C@H](CC(C)C)NC(=O)[C@H](CC(C)C)NC(=O)[C@H](CCC(N)=O)NC(=O)[C@H](Cc1ccccc1)NC(=O)[C@@H]1CCCN1C(=O)[C@H](CC(C)C)NC(=O)[C@H](CC(=O)O)NC(=O)[C@@H](NC(=O)[C@H](CO)NC(=O)[C@@H](NC(=O)[C@@H]1CCCN1C(=O)[C@@H]1CCCN1C(=O)CNC(=O)[C@@H]1CCC(=O)N1)[C@@H](C)CC)[C@@H](C)CC)C(=O)N[C@@H](CCC(=O)O)C(=O)N[C@H](C(=O)N[C@@H](CCC(=O)O)C(=O)N[C@@H](CCCCN)C(=O)N[C@@H](CCC(N)=O)C(=O)N[C@@H](CCC(=O)O)C(=O)N[C@@H](CCCCN)C(=O)N[C@@H](CCC(=O)O)C(=O)N[C@@H](CCCCN)C(=O)N[C@@H](CCC(N)=O)C(=O)N[C@@H](CCC(N)=O)C(=O)N[C@@H](C)C(=O)N[C@H](C(=O)N[C@H](C(=O)N[C@@H](CC(N)=O)C(=O)N[C@@H](C)C(=O)N[C@@H](CCCNC(=N)N)C(=O)N[C@@H](CC(C)C)C(=O)N[C@@H](CC(C)C)C(=O)N[C@@H](CC(=O)O)C(=O)N[C@@H](CCCNC(=N)N)C(=O)N[C@H](C(N)=O)C(C)C)[C@@H](C)O)[C@@H](C)O)[C@@H](C)CC [compound 363] | 100 | 20 | 25.1 | ≥ 1000
CC[C@H](C)[C@H](NC(=O)[C@@H](NC(=O)[C@H](C)NC(=O)[C@H](CC(C)C)NC(=O)[C@H](CC(C)C)NC(=O)[C@H](CC(C)C)NC(=O)[C@H](C)NC(=O)[C@H](CC(N)=O)NC(=O)[C@H](CC(N)=O)NC(=O)[C@H](C)NC(=O)[C@H](C)NC(=O)[C@H](CCC(N)=O)NC(=O)[C@H](CCC(N)=O)NC(=O)[C@H](CCCCN)NC(=O)[C@H](CCC(=O)O)NC(=O)[C@H](CCCCN)NC(=O)[C@H](CCC(=O)O)NC(=O)[C@H](CCC(N)=O)NC(=O)[C@H](CCCCN)NC(=O)[C@H](CCC(=O)O)NC(=O)[C@@H](NC(=O)[C@H](CCC(=O)O)NC(=O)[C@@H](NC(=O)[C@H](CCSC)NC(=O)[C@H](CCCCN)NC(=O)[C@H](CCCNC(=N)N)NC(=O)[C@H](CC(C)C)NC(=O)[C@H](CC(C)C)NC(=O)[C@H](Cc1c[nH]cn1)NC(=O)[C@H](Cc1ccccc1)NC(=O)[C@@H]1CCCN1C(=O)[C@H](CC(C)C)NC(=O)[C@H](CC(=O)O)NC(=O)[C@@H](NC(=O)[C@H](CO)NC(=O)[C@@H](NC(=O)[C@@H]1CCCN1C(=O)[C@@H]1CCCN1C(=O)CNC(=O)[C@@H]1CCC(=O)N1)[C@@H](C)CC)[C@@H](C)CC)[C@@H](C)CC)[C@@H](C)CC)[C@@H](C)O)C(N)=O [compound 229] | 100 | 100 | – | –
CC[C@H](C)[C@H](NC(=O)[C@H](CCC(=O)O)NC(=O)[C@H](C)NC(=O)[C@H](CC(C)C)NC(=O)[C@H](CC(C)C)NC(=O)[C@H](CCC(=O)O)NC(=O)[C@H](C)NC(=O)[C@H](CC(N)=O)NC(=O)[C@H](CC(N)=O)NC(=O)[C@H](C)NC(=O)[C@H](C)NC(=O)[C@H](CCC(N)=O)NC(=O)[C@H](CCC(N)=O)NC(=O)[C@H](CCCCN)NC(=O)[C@H](CCC(=O)O)NC(=O)[C@H](CCCCN)NC(=O)[C@H](CCC(=O)O)NC(=O)[C@H](CCC(N)=O)NC(=O)[C@H](CCCCN)NC(=O)[C@H](CCC(=O)O)NC(=O)[C@@H](NC(=O)[C@H](CCC(=O)O)NC(=O)[C@@H](NC(=O)[C@@H](NC(=O)[C@H](CCCCN)NC(=O)[C@H](CCCNC(=N)N)NC(=O)[C@H](CC(C)C)NC(=O)[C@H](CC(C)C)NC(=O)[C@H](CCC(N)=O)NC(=O)[C@H](Cc1ccccc1)NC(=O)[C@@H]1CCCN1C(=O)[C@H](CC(C)C)NC(=O)[C@H](CC(=O)O)NC(=O)[C@@H](NC(=O)[C@H](CO)NC(=O)[C@@H](NC(=O)[C@@H]1CCCN1C(=O)[C@@H]1CCCN1C(=O)CNC(=O)[C@@H]1CCC(=O)N1)[C@@H](C)CC)[C@@H](C)CC)C(C)C)[C@@H](C)CC)[C@@H](C)CC)C(N)=O [compound 272] | 100 | 51.1 | 23.3 | ≥ 1000
